Test results taken from patent US20220298225A1, “METHODS AND COMPOSITIONS FOR TREATING CANCER WITH COLLAGEN BINDING DRUG CARRIERS” (The University of Chicago, priority 2019, published 2022).

Tests used:
[1] = system: MMTV-PyMT breast cancer; experiment: MMTV-PyMT murine breast cancer model, anti-tumor efficacy; type: in vivo, mouse; conditions: single i.v. injection 5 mg/kg Dox basis on day 7
Procedure: The MMTV-PyMT murine breast cancer model was prepared as described previously (9). A total of 5×10^5 MMTV-PyMT cells suspended in 50 μL of PBS were injected subcutaneously into the mammary gland on the right side of each mouse. Mice were treated with aldoxorubicin, Dox-SA or Dox-CBD-SA on day 7 (5 mg/kg) via tail vein injection. Tumors were measured with a digital caliper at indicated time points, and volumes were calculated as ellipsoids, where V=4/3×3.14×depth/2×width/2×height/2. Mice were sacrificed when tumor volume had reached over 500 mm^3 or when active ulceration was observed. For the therapeutic experiment, FVB mice originated from Charles River origin were used. For the tumor infiltrating lymphocytes (TILs) analysis, FVB mice originated from both Jackson Laboratory and Charles River were used. The proportion of mice from different providers was equalized among all groups.

[2] = Plasma pharmacokinetics of Dox conjugates in tumor-free FVB mice; type: in vivo, mouse; conditions: 5 mg/kg Dox basis i.v.
Procedure: A previous report about polypeptide-Dox nanoparticles was referred (40) . To measure pharmacokinetics of Dox, 5 mg/kg Dox equivalent of aldoxorubicin, Dox-SA, or Dox-CBD-SA was injected intravenously into female FVB mice. Blood samples were collected in EDTA coated tubes at 5 min, 30 min, 1 h, 4 h, 12 h, 25 h, 50 h, and 75 h after injection. Blood samples were stored at 4° C. until the end of sample collection. The samples were centrifuged (2000×g, 5 min) and plasma was collected. Plasma samples diluted in acidified isopropanol (75 mM HCl, 10% water, 90% isopropanol) were loaded onto a 96 well black plate (100 μL/well). Fluorescence was measured as described above. Plasma samples were also collected from mice which received no injections, diluted in acidified isopropanol, and measured to create the standard curve of background fluorescence. Exponential two-phase decay (Y=Ae^−αt+Be^−αt) fitting was used to calculate the plasma half-life. Fast clearance half-life: t1/2, □, slow clearance half-life: t1/2, α. Data was analyzed using Prism software (v7, GraphPad).

[3] = system: MMTV-PyMT cells; experiment: Cellular uptake of Dox-conjugates (confocal microscopy); type: cell-based, mouse; conditions: after 1 h of incubation, 50 μM equivalent of Dox
Procedure: To evaluate the cellular uptake of Dox-conjugates, MMTV-PyMT cells were seeded in 96 well high content imaging plate (Corning) at 5000 cells/well and incubated overnight. Cells were washed with PBS, and treated with free Dox, Dox-SA, or Dox-CBD-SA dissolved in DMEM (110 mg/L of sodium pyruvate, 10% heat inactivated FBS, 1% penicillin/streptomycin, Phenol red (-)) at the concentration of 50 μM equivalent of Dox. After the incubation, cells were washed twice, treated with 75 nM of Lysotracker Deep Red and further incubated 30 min at 37° C. Cells were washed twice and observed by IX83 microscope (Olympus) with ×60 magnification. Images were processed using ImageJ software (NIH). Scale bar; 20 μm.

[4] = system: MMTV-PyMT breast cancer; experiment: Tumor-infiltrating lymphocytes by flow cytometry in MMTV-PyMT model; type: in vivo, mouse; conditions: 7 days after treatment, 5 mg/kg
Procedure: MMTV-PyMT model was prepared as described above. Mice were treated on day 7 with aldoxorubicin, Dox-SA or Dox-CBD-SA (5 mg/kg). Mice were sacrificed on day 14. Cell suspensions were obtained from each tumor as described previously (9). Tumors were harvested and digested in Dulbecco's Modified Eagle Medium (DMEM) supplemented with 2% FBS, 2 mg/mL collagenase D and 40 μg/mL DNase I (Roche) for 30 min at 37° C. Single-cell suspensions were obtained by gently disrupting the organs through a 70 μm cell strainer. Red blood cells were lysed with ACK lysing buffer (Quality Biological). Fixable live/dead cell discrimination was performed using Fixable Viability Dye eFluor 455 (eBioscience) according to the manufacturer's instructions. Following a washing step, cells were stained with specific antibodies for 20 min on ice prior to fixation. Following antibodies were used to stain the cells: CD3 (145-2C11, BD Biosciences), CD4 (RM4-5, BD Biosciences), CD8α (53-6.7, BD Biosciences), CD45 (30-F11, BD Biosciences), and NK1.1 (PK136, BD Biosciences). All flow cytometric analyses were done using a Fortessa flow cytometer (BD Biosciences) and analyzed using FlowJo software (Tree Star).

[5] = B
Procedure: Table printed on a drawing sheet, FIG. 2A-D
(A) Aldoxorubicin, Dox-SA or Dox-CBD-SA (5 mg/kg for Dox basis) were administered to tumor-free FVB mice via tail vein injection (i.v.). Blood plasma was collected at indicated time points. Plasma concentration of Dox was measured by fluorescence (mean±SEM, n=4 for aldoxorubicin, n=5 for Dox-SA and Dox-CBD-SA). (B) Plasma half-lives of Dox were calculated using two-phase exponential decay: MFI (t)=Ae^−αt+Be^−βt. t½, α, fast clearance half-life; t½, β, slow clearance half-life. (mean±SEM. n=4 for aldoxorubicin, n=5 for Dox-SA and Dox-CBD-SA). (C) MMTV-PyMT tumor bearing mice were treated with aldoxorubicin, Dox-SA, or Dox-CBD-SA (4.16 mg/kg for Dox basis). At the indicated time points, tumors were harvested, and the amount of Dox within the tumors was quantified (mean±SEM. n=5 for 2 h, n=7 for 24 h per group). (D) 100 μg of DyLight 488-labeled SA or equimolar amounts of DyLight 488-labeled CBD-SA were injected i.v. to MMTV-PyMT tumor bearing mice. 1 h after injection, tumors were harvested and fluorescence was analyzed by confocal microscopy. Tissues were also stained with DAPI and anti-CD31 antibody. Scale bar=100 μm. Representative images of 3 tumors, each. Two experimental replicates. […]
First reader's note: Panel B of FIG. 2A-D; each result cell holds the value together with its ± error.

| Substance | tumor growth [1] | blood plasma half-life of Dox [2] | intracellular localization of Dox fluorescence [3] | number of CD4+ T cells within the tumor per unit tumor mass [4] | number of CD8+ T cells within the tumor per unit tumor mass [4] | number of NK cells within the tumor per unit tumor mass [4] | t½, α [5] | t½, β [5] |
| --- | --- | --- | --- | --- | --- | --- | --- | --- |
| Dox-SA: unmodified mouse SA thiolated with Traut's reagent and conjugated with aldoxorubicin in the same way [listing 1 of 2 here] | significantly suppressed tumor growth | shorter than the reported half-life of naïve mouse SA | punctuate fluorescence was observed | not | not | not | – | – |
| Dox-SA: unmodified mouse SA thiolated with Traut's reagent and conjugated with aldoxorubicin in the same way [listing 2 of 2 here] | – | – | – | – | – | – | 3 ± 0.468 min | 8.4 ± 1.7 h |
